Data reported in patent US9434725B2, “5-azaindazole compounds and methods of use” (priority 2012, dated 2016).
Read-outs that look alike come from different tables or passages of the source.

By UniProt entry, the sequences of proteins in these tests, tags left out. Where a name states a change or a piece, a line headed by the entry shows the natural chain unless it says otherwise.
UniProt Q9P1W9: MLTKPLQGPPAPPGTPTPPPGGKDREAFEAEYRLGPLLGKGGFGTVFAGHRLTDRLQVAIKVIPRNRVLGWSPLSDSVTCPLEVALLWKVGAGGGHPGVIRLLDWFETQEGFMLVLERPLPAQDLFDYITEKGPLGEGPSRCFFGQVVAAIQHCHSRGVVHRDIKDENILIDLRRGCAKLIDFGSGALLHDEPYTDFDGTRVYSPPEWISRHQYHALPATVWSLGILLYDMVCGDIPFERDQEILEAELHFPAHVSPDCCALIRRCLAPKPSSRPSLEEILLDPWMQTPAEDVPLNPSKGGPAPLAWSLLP
UniProt P11309, whole entry: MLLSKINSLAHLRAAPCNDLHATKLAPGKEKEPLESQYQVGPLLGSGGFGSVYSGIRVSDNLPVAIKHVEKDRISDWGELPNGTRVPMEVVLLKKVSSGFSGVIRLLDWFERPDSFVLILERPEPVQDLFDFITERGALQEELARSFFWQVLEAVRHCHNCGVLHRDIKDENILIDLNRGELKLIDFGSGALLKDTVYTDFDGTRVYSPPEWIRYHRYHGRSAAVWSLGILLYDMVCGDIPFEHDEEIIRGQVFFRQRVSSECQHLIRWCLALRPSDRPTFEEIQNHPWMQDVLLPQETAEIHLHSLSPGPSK

Columns and labels:
[1] = biological target: PIM2 (Homo sapiens (Human), UniProt Q9P1W9); experiment: Pim kinase binding activity, Caliper LC3000 microfluidic peptide phosphorylation assay, PIM2; format: biochemical; conditions: 10 μM ATP, 90 min, room temperature; read-out: PIM2 LC3K (KI)
Protocol: (§1) A fluorescent-labeled Pim-specific peptide substrate, was custom synthesized by American Peptide Company (Sunnyvale, Calif.). Reaction Buffer contained 10 mM HEPES, pH 7.2, 10 mM MgCl2, 0.01% Tween 20, 2 mM DTT. Termination Buffer contained 190 mM HEPES, pH 7.2, 0.015% Brij-35, 0.2% Coating Reagent 3 (Caliper Life Sciences, Hopkinton, Mass.), 20 mM EDTA. Separation Buffer contained 100 mM HEPES, pH 7.2, 0.015% Brij-35, 0.1% Coating Reagent 3, 1:200 Coating Reagent 8 (Caliper Life Sciences, Hopkinton, Mass.), 10 mM EDTA and 5% DMSO.
(§2) PIM reactions were carried out in a final volume of 10 μL per well in a 384-well plate. […] After 90 minutes of incubation at room temperature, the phosphorylation reaction was stopped by the addition of 10 μL Termination Buffer. The product and substrate in each independent reaction were separated on a 12-sipper microfluidic chip (Caliper Life Sciences, Hopkinton, Mass.) run on a Caliper LC3000® (Caliper Life Sciences, Hopkinton, Mass.). The separation of product and substrate was optimized by choosing voltages and pressure using Caliper's Optimizer software (Hopkinton, Mass.). The separation conditions used a downstream voltage of −500V, an upstream voltage of −2150V, and a screening pressure of −1.2 psi. […] Substrate conversion was calculated from the electropherogram using HTS Well Analyzer software (Caliper Life Sciences, Hopkinton, Mass.). Ki values for the test compound were calculated.

[2] = biological target: PIM1 (Homo sapiens (Human), UniProt P11309); format: biochemical; conditions: 10 μM ATP, 90 min, room temperature; read-out: PIM1 LC3K (KI)
Protocol: as §1, §2

[3] = biological target: PIM3 (Homo sapiens (Human), UniProt Q86V86); experiment: Pim kinase binding activity, Caliper LC3000 microfluidic peptide phosphorylation assay, PIM3; format: biochemical; conditions: 10 μM ATP, 90 min, room temperature; read-out: PIM3 LC3K (KI)
Protocol: as §1, §2

[4] = tested on: BaF3 PIM1 cells; experiment: In vitro cell proliferation potency assay (Cell Titer Glo), BaF3 PIM1 cells; format: cell-based, murine; conditions: read-out: Prolif BaF3_PIM 1 (IC50)
Protocol: BaF3 parental line was obtained from the DSMZ repository. BaF3 lines transfected with PIM1 or PIM2 were generated. Mouse IL-3 was purchased from R&D Systems. G418 was purchased from Clontech. Media for BaF3 parental line contained RPMI, 10% FBS, 2 mM L-Glutamine, 2 ng/mL mIL-3. Media for BaF3 PIM1 & 2 lines contained RPMI, 10% FBS, 2 mM L-Glutamine, […]. Media for MM1.S (multiple myeloma cells) line contained RPMI, 10% FBS, 2 mM L-Glutamine.
BaF3, a murine interleukin-3 dependent pro-B cell line, parental cells, BaF3 PIM1 cells, BaF3 PIM2 cells, and MM1.S (multiple myeloma) cells were seeded at 2 k/well, 5 k/well, 5 k/well, and 10 k/well respectively, in a 384-well plate, at 45 μL/well. Test compound was added at 5 μL/well. BaF3 cells (parental and transfected) were incubated overnight, while MM1.S cells were incubated for 72 hours at 37° C., 5% CO2. CELL TITER GLO® Reagent (Promega) was added at 50 μL/well, the plates were incubated for 30 minutes, and their luminescence read on an HT Analyst. IC50/EC50 values for the test compound were calculated.

[5] = BaF3 cells transfected with PIM1, incubated overnight
[6] = Mus musculus, BaF3, BaF3 cells transfected with PIM1, incubated overnight

Row | Compound | Ki [1] [nM] | Ki [2] [nM] | Ki [3] [nM] | IC50 [4, 5] [nM] | IC50 [4, 6] [nM]
1 | Cc1cncc(-c2cc3c(cn2)cnn3-c2cccc(C3CCCC(N)C3)n2)n1 (single isomer, unassigned) [Compound 210, 3-[6-[6-(6-methylpyrazin-2-yl)pyrazolo[4,3-c]pyridin-1-yl]-2-pyridyl]cyclohexanamine] | 9.39 | 0.609 | – | – | –
2 | Cc1cncc(-c2cc3c(cn2)cnn3-c2cccc(C3CCCC(N)C3)n2)n1 (single isomer, unassigned) [Compound 211, 3-[6-[6-(6-methylpyrazin-2-yl)pyrazolo[4,3-c]pyridin-1-yl]-2-pyridyl]cyclohexanamine] | – | – | 0.074 | 459 | –
3 | Cc1cncc(-c2cc3c(cn2)cnn3-c2cccc(C3CCCC(N)C3)n2)n1 (single isomer, unassigned) [Compound 212, 3-[6-[6-(6-methylpyrazin-2-yl)pyrazolo[4,3-c]pyridin-1-yl]-2-pyridyl]cyclohexanamine] | 2.99 | 0.483 | – | 1600 | –
4 | Cc1cncc(-c2cc3c(cn2)cnn3-c2cccc(C3CNCCC3(F)F)n2)n1 (single isomer, unassigned) [Compound 272] | – | – | 0.0235 | – | –
5 | CCn1cc(-c2cc3c(cn2)cnn3-c2cccc(N3CC[C@@H](O)C3)n2)cn1 [Compound 128, (R)-1-(6-(6-(1-ethyl-1H-pyrazol-4-yl)-1H-pyrazolo[4,3-c]pyridin-1-yl)pyridin-2-yl)pyrrolidin-3-ol] | 56.7 | – | – | – | –
6 | FC(F)(F)Cn1cc(-c2cc3c(cn2)cnn3-c2ccnc(N3CCCNCC3)n2)cn1 [Compound 179, 1-(2-(1,4-Diazepan-1-yl)pyrimidin-4-yl)-6-(1-(2,2,2-trifluoroethyl)-1H-pyrazol-4-yl)-1H-pyrazolo-[4,3-c]pyridine] | 5.1 | 0.402 | – | – | 376
7 | Cc1cncc(-c2cc3c(cn2)cnn3-c2ccc(C(F)F)c(N3CCC[C@H](N)C3)n2)n1 [Compound 227, (S)-1-(3-(difluoromethyl)-6-(6-(6-methylpyrazin-2-yl)-1H-pyrazolo[4,3-c]pyridin-1-yl)pyridin-2-yl)piperidin-3-amine] | 0.233 | 0.036 | – | – | 869
8 | Cc1cncc(-c2cc3c(cn2)cnn3-c2cccc(C3CNCCC3(F)F)n2)n1 (stereo not drawn) [Compound 259, 1-[6-(4,4-difluoro-3-piperidyl)-2-pyridyl]-6-(6-methylpyrazin-2-yl)pyrazolo[4,3-c]pyridine] | – | – | 0.025 | – | –
9 | Cn1cc(-c2cc3c(cn2)cnn3-c2cccc(N3CC4(CNC4)C3)n2)cn1 [Compound 268, 1-(6-(2,6-Diazaspiro[3.3]heptan-2-yl)pyridin-2-yl)-6-(1-methyl-1H-pyrazol-4-yl)-1H-pyrazolo[4,3-c]pyridine] | – | – | 5.65 | – | –
10 | Cc1cncc(-c2cc3c(cn2)cnn3-c2ccc(=O)n([C@H]3CCCNC3)n2)n1 [Compound 289, (S)-6-(6-(6-methylpyrazin-2-yl)-1H-pyrazolo[4,3-c]pyridin-1-yl)-2-(piperidin-3-yl)pyridazin-3(2H)-one] | – | 31.3 | 30 | – | –
11 | Cc1cncc(-c2cc3c(cn2)cnn3-c2cccc(C3(F)CCCNC3)n2)n1 (stereo not drawn) [Compound 294, 1-(6-(3-fluoropiperidin-3-yl)pyridin-2-yl)-6-(6-methylpyrazin-2-yl)-1H-pyrazolo[4,3-c]pyridine] | – | – | 0.209 | – | –
12 | Cc1cncc(-c2cc3c(cn2)cnn3-c2cccc(N(C)C)n2)n1 [Compound 296, N,N-dimethyl-6-(6-(6-methylpyrazin-2-yl)-1H-pyrazolo[4,3-c]pyridin-1-yl)pyridin-2-amine] | 9.69 | 0.727 | – | – | 3800
13 | FC1CCNCC1c1cccc(-n2ncc3cnc(-c4cnn(CC(F)(F)F)c4)cc32)n1 (stereo not drawn) [Compound 306, 1-(6-(4-fluoropiperidin-3-yl)pyridin-2-yl)-6-(1-(2,2,2-trifluoroethyl)-1H-pyrazol-4-yl)-1H-pyrazolo[4,3-c]pyridine] | 0.56 | 0.04 | – | – | 129

Results, then the compound that gave them:

Row | Ki [1] [nM] | Ki [2] [nM] | Ki [3] [nM] | IC50 [4, 5] [nM] | IC50 [4, 6] [nM] | Compound
14 | 0.761 | – | – | – | – | Cc1cncc(-c2cc3c(cn2)cnn3-c2cccc(N3CC(N)CCC3C)n2)n1 (single isomer, unassigned) [Compound 182, 6-methyl-1-[6-[6-(6-methylpyrazin-2-yl)pyrazolo[4,3-c]pyridin-1-yl]-2-pyridyl]piperidin-3-amine]
15 | – | – | 0.291 | – | – | Cn1cc(-c2cc3c(cn2)cnn3-c2cccc(N3CCNCC3)n2)cn1 [Compound 102, 6-(1-methyl-1H-pyrazol-4-yl)-1-(6-(piperazin-1-yl)pyridin-2-yl)-1H-pyrazolo[4,3-c]pyridine]
16 | 3.86 | – | – | – | – | CCc1cncc(-c2cc3c(cn2)cnn3-c2cccc(N3CCNCC3)n2)c1 [Compound 104, 6-(5-ethylpyridin-3-yl)-1-(6-(piperazin-1-yl)pyridin-2-yl)-1H-pyrazolo[4,3-c]pyridine]
17 | – | 0.104 | 0.159 | – | 1200 | CCc1cncc(-c2cc3c(cn2)cnn3-c2cccc(N3CCNCC(O)C3)n2)c1 (stereo not drawn) [Compound 106, 1-(6-(6-(5-ethylpyridin-3-yl)-1H-pyrazolo[4,3-c]pyridin-1-yl)pyridin-2-yl)-1,4-diazepan-6-ol]
18 | – | 0.29 | 0.226 | – | 1400 | CCn1cc(-c2cc3c(cn2)cnn3-c2cccc(N3CCCNCC3)n2)cn1 [Compound 125, 1-(6-(1,4-diazepan-1-yl)pyridin-2-yl)-6-(1-ethyl-1H-pyrazol-4-yl)-1H-pyrazolo[4,3-c]pyridine]
19 | – | 0.0204 | 0.0199 | – | 574 | Cc1cncc(-c2cc3c(cn2)cnn3-c2cccc(N3CCCNCC3)n2)n1 [Compound 138, 1-[6-(1 4-diazepan-1-yl)-2-pyridyl]-6-(6-methylpyrazin-2-yl)pyrazolo[4,3-c]pyridine]
20 | 0.204 | – | – | – | – | Cc1cncc(-c2cc3c(cn2)cnn3-c2cccc(N3CC(N)CCC3C)n2)n1 (stereo not drawn) [Compound 171, 6-methyl-1-[6-[6-(6-methylpyrazin-2-yl)pyrazolo[4,3-c]pyridin-1-yl]-2-pyridyl]piperidin-3-amine]
21 | – | 0.07 | 0.067 | – | 963 | Cc1cncc(-c2cc3c(cn2)cnn3-c2cccc(N3CCCCC(N)C3)n2)n1 (stereo not drawn) [Compound 187, 1-[6-[6-(6-methylpyrazin-2-yl)pyrazolo[4,3-c]pyridin-1-yl]-2-pyridyl]azepan-3-amine]
22 | – | 0.072 | 0.074 | – | 572 | Cc1cncc(-c2cc3c(cn2)cnn3-c2cccc(N3CCNC[C@@H]3C)n2)n1 [Compound 196, 1-[6-[(2S)-2-methylpiperazin-1-yl]-2-pyridyl]-6-(6-methylpyrazin-2-yl)pyrazolo[4,3-c]pyridine]
23 | – | 0.224 | 0.142 | – | 912 | OCC(O)c1cncc(-c2cc3c(cn2)cnn3-c2cccc(N3CCNCC3)n2)n1 (stereo not drawn) [Compound 277, 1-(6-(1-(6-(piperazin-1-yl)pyridin-2-yl)-1H-pyrazolo[4,3-c]pyridin-6-yl)pyrazin-2-yl)ethane-1,2-diol]
24 | – | – | 0.09 | – | – | CCNc1cncc(-c2cc3c(cn2)cnn3-c2cccc(N3CCNCC3)n2)n1 [Compound 285, N-ethyl-6-(1-(6-(piperazin-1-yl)pyridin-2-yl)-1H-pyrazolo[4,3-c]pyridin-6-yl)pyrazin-2-amine]
25 | 0.806 | 0.105 | – | – | 4200 | NCCOc1cncc(-c2cc3c(cn2)cnn3-c2cccc(N3CCNCC3)n2)n1 [Compound 286, 2-((6-(1-(6-(piperazin-1-yl)pyridin-2-yl)-1H-pyrazolo[4,3-c]pyridin-6-yl)pyrazin-2-yl)oxy)ethanamine]
26 | – | 0.068 | – | – | 1000 | CC#Cc1cncc(-c2cc3c(cn2)cnn3-c2cccc(N3CCNCC3)n2)n1 [Compound 317, 1-(6-(piperazin-1-yl)pyridin-2-yl)-6-(6-(prop-1-ynyl)pyrazin-2-yl)-1H-pyrazolo[4,3-c]pyridine]
